Source: article PMC10278182

Columns and labels:
[1] = target: O(GGS)4 nanopore sensor (adaptor O - MLL4Win - (GGS)4 tether - tFhuA) (human | Escherichia coli); experiment: BLI; ND-BLI: biotinylated nanodiscs (15 nM) with reconstituted nanopores loaded on streptavidin (SAX) sensors; WDR5 in solution, 1 to 18 μM; 300 mM KCl, 20 mM Tris-HCl, 1 mg/mL BSA, 1 mM TCEP, pH 7.5; 24 °C; empty nanodiscs as reference
[2] = target: O(PA)8 nanopore sensor (adaptor O - MLL4Win - (PA)8 tether - tFhuA) (human | Escherichia coli); experiment: as above
[3] = target: O(PA)6 nanopore sensor (adaptor O - MLL4Win - (PA)6 tether - tFhuA) (human | Escherichia coli); experiment: as above
[4] = target: O(GGS)5 nanopore sensor (adaptor O - MLL4Win - (GGS)5 tether - tFhuA) (human | Escherichia coli); experiment: as above
[5] = target: O(GGS)4 nanopore sensor (adaptor O - MLL4Win - (GGS)4 tether - tFhuA) (human | Escherichia coli); experiment: single-channel electrical recording (resistive-pulse technique); nanopore sensor in a planar lipid bilayer, WDR5 added to the cis side; 300 mM KCl, 20 mM Tris-HCl, 1 mM TCEP, pH 7.5; -20 mV; 23 ± 1 °C; capture durations follow a three-exponential distribution (short-, medium-, long-lived events); rate constants from linear fits of 1/τon and 1/τoff versus [WDR5]
[6] = target: O(PA)3 nanopore sensor (adaptor O - MLL4Win - (PA)3 tether - tFhuA) (human | Escherichia coli); experiment: as above
[7] = target: O(PA)6 nanopore sensor (adaptor O - MLL4Win - (PA)6 tether - tFhuA) (human | Escherichia coli); experiment: as above
[8] = target: O(GGS)2 nanopore sensor (adaptor O - MLL4Win - (GGS)2 tether - tFhuA) (human | Escherichia coli); experiment: as above

## WD40 repeat protein 5 truncation mutant lacking residues 1-22 (WDR5ΔN) (from UniProt P61964 23-334) (domain or fragment)
[1]
  Kd: 200 nM
  koff: 0.0039 s⁻¹
  kon: 20000 M⁻¹ s⁻¹
[2]
  Kd: 620 nM
  koff: 0.011 s⁻¹
  kon: 17000 M⁻¹ s⁻¹
[3]
  Kd: 1100 nM
  koff: 0.012 s⁻¹
  kon: 11000 M⁻¹ s⁻¹
[4]
  Kd: 200 nM
  koff: 0.0037 s⁻¹
  kon: 19000 M⁻¹ s⁻¹
[5]
  KD-3 (long-lived events): 20000 nM
  koff-1 (short-lived events): 86 s⁻¹
  koff-2 (medium-lived events): 9.2 s⁻¹
  koff-3 (long-lived events): 0.78 s⁻¹
  kon-1 (short-lived events): 140000 M⁻¹ s⁻¹
  kon-2 (medium-lived events): 79000 M⁻¹ s⁻¹
  kon-3 (long-lived events): 40000 M⁻¹ s⁻¹
[6]
  koff-1 (short-lived events): 220 s⁻¹
  koff-2 (medium-lived events): 35 s⁻¹
  koff-3 (long-lived events): 0.79 s⁻¹
  kon-1 (short-lived events): 29000 M⁻¹ s⁻¹
  kon-2 (medium-lived events): 10000 M⁻¹ s⁻¹
  kon-3 (long-lived events): 2000 M⁻¹ s⁻¹
[7]
  KD-3 (long-lived events): 103000 nM
  koff-1 (short-lived events): 170 s⁻¹
  koff-2 (medium-lived events): 18 s⁻¹
  koff-3 (long-lived events): 0.8 s⁻¹
  kon-1 (short-lived events): 160000 M⁻¹ s⁻¹
  kon-2 (medium-lived events): 51000 M⁻¹ s⁻¹
  kon-3 (long-lived events): 8000 M⁻¹ s⁻¹
[8]
  KD-3 (long-lived events): 21000 nM
  koff of the long-lived events (printed as koff in Table 2): 0.78 s⁻¹
  koff-1 (short-lived events): 88 s⁻¹
  koff-2 (medium-lived events): 9.4 s⁻¹
  koff-3 (long-lived events): 0.77 s⁻¹
  kon of the long-lived events (printed as kon in Table 2): 36000 M⁻¹ s⁻¹
  kon-1 (short-lived events): 110000 M⁻¹ s⁻¹
  kon-2 (medium-lived events): 69000 M⁻¹ s⁻¹
  kon-3 (long-lived events): 35000 M⁻¹ s⁻¹
